Test results as given in publication PMC8234359, “Pharmacokinetics in Zebrafish Embryos (ZFE) Following Immersion and Intrayolk Administration: A Fluorescence-Based Analysis” (Pharmaceuticals, 2021).

Test: Intrayolk (IY) microinjection of two-cell stage zebrafish embryos (2 mg/kg), spatiotemporal fluorescence imaging and non-compartmental AUC
Format: in vivo, zebrafish (Danio rerio)
Source text: Intrayolk microinjection (IY): zebrafish embryos at the two-cell stage were positioned in a Petri dish at room temperature. […] Needles were filled with compounds dissolved in the vehicle (DMSO/saline (1:1)), placed under the microscope, and using forceps, the tip was cut off in a manner to allow for a consistent volume to be injected. Afterwards, the embryos were transferred to 6-well plates. Control embryos were exposed to vehicle only. […] Previous to fluorescence imaging, the embryos were dechorionated (up to 72 hpf) and immobilized by hypothermia, rinsed three times with Danieau's medium, and positioned latero-lateral (right lateral recumbency) on a single cavity glass slide and covered by a drop of agarose (0.1%). Then, using MetaMorph (Microscopy Automation and Image Analysis Software V.7.8.00, Molecular Devices, LLC., San Jose, CA, USA) and by manual delineation of the whole-body (WB) (up to 120 h) and yolk sac contours (up to 72 h) of the zebrafish embryos the fluorescence in the selected area was quantified as integrated fluorescence intensity (RFU). The RFU values of the non-yolk compartment (i.e., RoB: rest of body) was assessed by subtracting the yolk results from the corresponding integrated fluorescence intensities found in the WB. […] The area under a plot of the fluorescence intensity (RFUT) versus time is referred to as the area under the (zero moment) curve AUC. […]

Substance: Rhodamine 6g 6-Isomer [Compound R6GA]
- accumulation in the gastrointestinal system (IY microinjection 2 mg/kg, after 96 hpf): accumulation
- RD (IY), Relative Distribution (ratio of AUCRoB to AUCWB after microinjection into the yolk (2 mg/kg), 0.25–72 h): 0.26
